Yeast mating assay 1: variants of the scFv Ab-14

The measurements come from Engelhart et al. 2022 (doi:10.1038/s41597-022-01779-4) through the FLAb antibody collection.

The target is the same throughout: PDVDLGDISGINAS, from the HR2 region of SARS-CoV-2 spike.

Parent: Ab-14, a human scFv built as VH, a (GGGGS)3 linker, VL. Only the CDRs of the light chain vary.
VH: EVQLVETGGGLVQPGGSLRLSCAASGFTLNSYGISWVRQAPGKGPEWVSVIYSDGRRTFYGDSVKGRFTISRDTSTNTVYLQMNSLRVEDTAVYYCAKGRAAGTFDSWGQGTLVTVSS
VL: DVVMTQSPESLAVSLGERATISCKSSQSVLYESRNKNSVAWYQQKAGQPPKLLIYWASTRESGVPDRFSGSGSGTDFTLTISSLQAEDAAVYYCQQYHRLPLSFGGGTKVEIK

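The parent was found by panning a naive human phage display library on the peptide. In library AAYL50, one, two or three CDR residues were substituted; doubles and triples were drawn at random. AlphaSeq pools MATa yeast showing the antibodies with MATalpha yeast showing the peptide. The frequency of each diploid, read from paired DNA barcodes, reflects how well the two displayed proteins bind. The ratio of observed to expected reads was calibrated, replicate by replicate, on BCL2-family standards whose Kd was known from biolayer interferometry. There are three technical replicates.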

Each variant's VL is given in full.
Every variant below is changed at R60 of the VL (sequential numbering).
Scale: log10 of Kd in nM, estimated from mating counts; low values are strong binders.
A mean of the replicates is given; it leaves out those without a signal.
Where no diploid with the target was found in that replicate, the entry reads "nd": below detection, most likely a poor binder, though not proof of it.
The list is sorted by this average, lowest first, undetected variants last.
Background: pairings of library AAYL50 with three empty control strains gave a value in 18% of cases (median 4.19, 5th percentile 2.99). Values in that range, when seen in few replicates, are hard to tell from nonspecific mating.
For reference, the parent read 0.65 as the reference entry and 1.68 as a member of this library.

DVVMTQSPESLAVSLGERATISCKSSQSVLYESDNKNSVAWYQQKAGQPPKLLIYWASTIESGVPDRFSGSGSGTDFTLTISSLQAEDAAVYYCQQYHRLPLSFGGGTKVEIK: 2.24, 1.93, 2.10 (mean 2.09).
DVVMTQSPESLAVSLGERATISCKSTQSVLYESRNKNSVAWYQQKAGQPPKLLIYWASTTMSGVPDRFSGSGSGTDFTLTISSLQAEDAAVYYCQQYHRLPLSFGGGTKVEIK: 2.47, 2.58, 2.99 (mean 2.68).
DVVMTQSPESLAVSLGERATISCKSSQSVLYESRNKNDVAWYQQKAGQPPKLLIYWASIIESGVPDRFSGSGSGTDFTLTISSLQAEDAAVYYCQQYHRLPLSFGGGTKVEIK: 3.04, nd, nd.
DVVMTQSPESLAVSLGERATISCKSSQSVLYESRNKNSVAWYQQKAGQPPKLLIYWAKTCESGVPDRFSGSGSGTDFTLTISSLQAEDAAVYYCQQYHPLPLSFGGGTKVEIK: 3.45, nd, nd.
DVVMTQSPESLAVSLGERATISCKSSQSVLYESRNENSVAWYQQKAGQPPKLLIYWASTLESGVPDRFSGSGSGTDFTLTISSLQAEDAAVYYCQQYHRLPGSFGGGTKVEIK: nd, 3.69, nd.
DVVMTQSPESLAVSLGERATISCKSSQSVKYESRNKNSVAWYQQKAGQPPKLLIYWASTKESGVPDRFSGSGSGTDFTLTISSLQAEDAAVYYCQQYCRLPLSFGGGTKVEIK: 3.60, 2.83, 4.95 (mean 3.79).
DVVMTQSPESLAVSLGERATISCKSSQSVLYESRNKNSVAWYQQKAGQPPKLLIYWASTTESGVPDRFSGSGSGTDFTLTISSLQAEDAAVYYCSQYHRLPLYFGGGTKVEIK: 3.88, nd, 3.73 (mean 3.81).
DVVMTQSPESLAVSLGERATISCKSSQSVLYEGRNKNSVRWYQQKAGQPPKLLIYWASTMESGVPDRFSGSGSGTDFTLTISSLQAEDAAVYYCQQYHRLPLSFGGGTKVEIK: 3.77, 3.90, nd (mean 3.83).
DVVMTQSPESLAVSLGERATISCKSSQSVLGESRNKNSVAWYQQKAGQPPKLLIYWASTWESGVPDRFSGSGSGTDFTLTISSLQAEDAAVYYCQQIHRLPLSFGGGTKVEIK: 6.00, nd, nd.
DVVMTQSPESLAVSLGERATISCKSSQSVLYESRNKNSQAWYQQKAGQPPKLLIYWASTFEMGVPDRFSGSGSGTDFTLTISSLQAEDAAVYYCQQYHRLPLSFGGGTKVEIK: nd, nd, nd.
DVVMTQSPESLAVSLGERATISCKSSQSVLYESRNKNIVAWYQQKAGQPPKLLIYWASTAESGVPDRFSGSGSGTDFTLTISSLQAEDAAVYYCQQYHRLPTSFGGGTKVEIK: nd, nd, nd.
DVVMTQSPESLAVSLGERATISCKSSQSVLYESRNKNSVAWYQQKAGQPPKLLIYSASTFESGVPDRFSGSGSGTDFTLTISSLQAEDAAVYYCQQYHRLPCSFGGGTKVEIK: nd, nd, nd.
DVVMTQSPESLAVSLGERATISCYSSQSVLYESRNKNSVAWYQQKAGQPPKLLIYWASVHESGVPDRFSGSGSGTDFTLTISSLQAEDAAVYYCQQYHRLPLSFGGGTKVEIK: nd, nd, nd.
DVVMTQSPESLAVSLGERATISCKSSLSVLYESRNKNSVAWYQQKAGQPPKLLIYWASTDESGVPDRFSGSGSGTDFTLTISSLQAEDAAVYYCQQYHRLPLSFGGGTKVEIK: nd, nd, nd.
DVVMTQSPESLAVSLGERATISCKSHQSVLYESRNKNSVAWYQQKAGQPPKLLIYWASTKESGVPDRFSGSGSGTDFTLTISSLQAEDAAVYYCQQYHRLPASFGGGTKVEIK: nd, nd, nd.

The last 2 entries again:

VL,log10 Kd (nM) by replicate,"log10 Kd (nM), mean"
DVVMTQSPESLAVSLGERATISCKSSLSVLYESRNKNSVAWYQQKAGQPPKLLIYWASTDESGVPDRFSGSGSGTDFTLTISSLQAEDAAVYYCQQYHRLPLSFGGGTKVEIK,"nd, nd, nd",nd
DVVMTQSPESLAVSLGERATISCKSHQSVLYESRNKNSVAWYQQKAGQPPKLLIYWASTKESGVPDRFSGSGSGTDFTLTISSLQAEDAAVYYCQQYHRLPASFGGGTKVEIK,"nd, nd, nd",nd